Earlier results, collected in publication PMC8587714, “Preliminary Assessment of the Anti-inflammatory Activity of New Structural Honokiol Analogs with a 4′-O-(2-Fluoroethyl) Moiety and the Potential of Their ^18F-Labeled Derivatives for Neuroinflammation Imaging” (Molecules, 2021).

System: ovine COX-2
Design: method as in PMID 25074039
Details: SI = COX-1 IC50/COX-2 IC50; ovine assay kit; cited from earlier work

C=CCc1ccc(O)c(-c2ccc(OC)c(CC=C)c2)c1 [MH, 4′-O-methylhonokiol]
SI (Selectivity Index): 40
